{
  "source": "paper PMC9138102",
  "about": "“The Role of ZIP9 and Androgen Receptor in the Establishment of Tight Junctions between Adult Rat Sertoli Cells” (Biology, 2022)",
  "origin": "cited, not measured here",
  "settings": "cited from earlier work",
  "data": [
    {"substance": "testosterone 3-(O-carboxymethyl)-oxime:bovine serum albumin-fluorescein isothiocyanate conjugate [T-BSA-FITC]", "values": [
      {"measurement": "Plasma membrane permeability", "result": "plasma membrane-impermeable"}
    ]}
  ]
}
